According to PubChem BioAssay (EPA / NIEHS):
The entries are a selection whose mix differs from that of the whole data set. Calls of active or inactive are those of the source. The calls were made as follows: active = hit-call score of the fitted dose curve at least 0.9, where 1 is the maximum; inactive = score below 0.9.

What was measured:
[1] = BSK_hDFCGF_SRB: Viability Assessment in the BioMAP Diversity Plus: hDFCGF Assay (AID 2283061); details: primary human foreskin fibroblasts;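 also: cells exposed to compound for 24 h before the read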
Outline: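 SRB-based viability read on primary human skin fibroblasts at 24 h: TCA fixation, 0.1% dye, 560 nm. Gain or loss of signal is fitted against the DMSO negative control.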

[2] = read-out: TIMP metallopeptidase inhibitor 1 (TIMP1), TIMP1 (gene 7076); assay: BSK_hDFCGF_TIMP1: BioMAP Diversity Plus: hDFCGF Assay for TIMP metallopeptidase inhibitor 1 (TIMP1) Biomarker Activity (AID 2283062); details: actives raise or lower the signal; primary human foreskin fibroblasts
Outline: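 Bidirectional curve fitting against DMSO baseline yielded this endpoint, based on ELISA detection of TIMP-1 in primary human foreskin fibroblasts exposed to compound for 24 h.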

[3] = read-out: Monokine induced gamma interferon (MIG), CXCL9 (gene 4283); assay: BSK_hDFCGF_MIG: BioMAP Diversity Plus: hDFCGF Assay for Monokine induced gamma interferon (MIG) Biomarker Activity (AID 2283063); details: actives raise or lower the signal; primary human foreskin fibroblasts
Procedure: BSK_hDFCGF is a cell-based, multiplexed-readout assay that uses foreskin fibroblast, a human skin primary cell, with measurements taken at 24 hours after chemical dosing in a 96-well plate.BSK_hDFCGF_MIG is an assay component measured in the BSK_hDFCGF assay. It measures MIG antibody related to regulation of gene expression using ELISA technology.Data from the assay component BSK_hDFCGF_MIG was analyzed into 1 assay endpoint. This assay endpoint, BSK_hDFCGF_MIG, was analyzed with bidirectional fitting relative to DMSO as the negative control and baseline of activity. […] Furthermore, this assay endpoint can be referred to as a primary readout, because this assay has produced multiple assay endpoints where this one serves a signaling function. […]
The levels of cell surface (or secreted, indicated by the prefix "s") biomarker endpoints were measured by ELISA. Overt cytotoxicity to cells in confluent adherent cultures (all systems other than the BT system) was assessed by measuring total protein levels using sulforhodamine B (SRB) staining in parallel cultures at the time of biomarker measurements, indicated as SRB endpoints. […] SRB was performed by staining cells with 0.1% SRB after fixation with 10% TCA and reading wells at 560 nm.Viability and proliferation of PBMC (T cells) was quantified by Alamar Blue reduction for the SAg and BT systems. […] Plates were read after 6 h.

[4] = read-out: Matrix Metallopeptidase 1 (MMP1), MMP1 (gene 4312); assay: BSK_hDFCGF_MMP1: BioMAP Diversity Plus: hDFCGF Assay for Matrix Metallopeptidase 1 (MMP1) Biomarker Activity (AID 2283064); details: actives raise or lower the signal; primary human foreskin fibroblasts
Outline: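 Primary human foreskin fibroblasts in the hDFCGF system were dosed with test chemical, and MMP1 was measured by ELISA 24 h later. Values come from bidirectional curve fitting against the DMSO baseline.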

[5] = read-out: Vascular cell adhesion molecule 1 (VCAM1), VCAM1 (gene 7412); assay: BSK_hDFCGF_VCAM1: BioMAP Diversity Plus: hDFCGF Assay for Vascular cell adhesion molecule 1 (VCAM1) Biomarker Activity (AID 2283065); details: actives raise or lower the signal; primary human foreskin fibroblasts
Outline: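 Measured after 24 h chemical treatment of primary human skin fibroblasts, VCAM-1 was detected by ELISA and concentration-response analysed in both directions versus DMSO vehicle.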

[6] = read-out: Plasminogen activator inhibitor-1 (PAI1), SERPINE1 (gene 5054); assay: BSK_hDFCGF_PAI1: BioMAP Diversity Plus: hDFCGF Assay for Plasminogen activator inhibitor-1 (PAI1) Biomarker Activity (AID 2283066); details: actives raise or lower the signal; primary human foreskin fibroblasts
Outline: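 Primary dermal fibroblasts (human foreskin), hDFCGF system; compound 24 h; PAI-1 by ELISA; bidirectional fit vs DMSO control.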

[7] = read-out: Intercellular Adhesion Molecule 1 (ICAM1), ICAM1 (gene 3383); assay: BSK_KF3CT_ICAM1: BioMAP Diversity Plus: KF3CT Assay for Intercellular Adhesion Molecule 1 (ICAM1) Biomarker Activity (AID 2283067); details: actives raise or lower the signal; primary human keratinocytes with fibroblasts
Procedure: BSK_KF3CT is a cell-based, multiplexed-readout assay that uses keratinocytes and foreskin fibroblasts, a human skin primary cell co-culture, with measurements taken at 24 hours after chemical dosing in a 96-well plate.BSK_KF3CT_ICAM1 is an assay component measured in the BSK_KF3CT assay. It measures ICAM-1 antibody related to regulation of gene expression using ELISA technology.Data from the assay component BSK_KF3CT_ICAM1 was analyzed into 1 assay endpoint. This assay endpoint, BSK_KF3CT_ICAM1, was analyzed with bidirectional fitting relative to DMSO as the negative control and baseline of activity. […] Furthermore, this assay endpoint can be referred to as a primary readout, because this assay has produced multiple assay endpoints where this one serves a signaling function. […]
The levels of cell surface (or secreted, indicated by the prefix "s") biomarker endpoints were measured by ELISA. Overt cytotoxicity to cells in confluent adherent cultures (all systems other than the BT system) was assessed by measuring total protein levels using sulforhodamine B (SRB) staining in parallel cultures at the time of biomarker measurements, indicated as SRB endpoints. […] SRB was performed by staining cells with 0.1% SRB after fixation with 10% TCA and reading wells at 560 nm.Viability and proliferation of PBMC (T cells) was quantified by Alamar Blue reduction for the SAg and BT systems. […]

[8] = read-out: Interferon-gamma inducible Protein 10 (IP10), CXCL10 (gene 3627); assay: BSK_KF3CT_IP10: BioMAP Diversity Plus: KF3CT Assay for Interferon-gamma inducible Protein 10 (IP10) Biomarker Activity (AID 2283068); details: actives raise or lower the signal; primary human keratinocytes with fibroblasts
Outline: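 KF3CT co-culture (keratinocytes + foreskin fibroblasts), 24 h compound, IP-10 by ELISA; bidirectional fit vs DMSO baseline.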

[9] = BSK_KF3CT_SRB: Viability Assessment in the BioMAP Diversity Plus: KF3CT Assay (AID 2283069); details: primary human keratinocytes with fibroblasts;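 also: read 24 h after compound addition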
Outline: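 Human primary keratinocyte plus foreskin fibroblast co-culture exposed to chemicals for 24 h. Total protein measured by 0.1% sulforhodamine B staining after 10% TCA fixation, read at 560 nm; bidirectional fitting versus DMSO baseline.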

[10] = read-out: Interleukin-1 alpha (IL1a), IL1A (gene 3552); assay: BSK_KF3CT_IL1a: BioMAP Diversity Plus: KF3CT Assay for Interleukin-1 alpha (IL1a) Biomarker Activity (AID 2283070); details: actives raise or lower the signal; primary human keratinocytes with fibroblasts
Outline: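 Human keratinocyte plus foreskin fibroblast primary co-culture, sampled 24 h after chemical dosing. IL-1a measured by ELISA; responses fitted bidirectionally against DMSO baseline (negative control), so gain or loss of signal both count.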

Measured: AC50

O=[N+]([O-])c1ccccc1[N+](=O)[O-]
active: [3] 7.37 µM | [6] 9.74 µM
inactive: all other assays above

CC(C)OP(OC(C)C)OC(C)C
inactive: all assays above
